ChEMBL document CHEMBL5126531, “NAE modulators: A potential therapy for gastric carcinoma” (Eur J Med Chem, 2022)

Molecular target: Carbonic anhydrase 2 (Homo sapiens, UniProt P00918)
Test: Inhibition of human erythrocyte carbonic anhydrase 2 using 4-Nitrophenyl acetate as substrate preincubated for 15 mins followed by substrate addition and measured after 30 mins by spectrophotometry
Format: cell-based

Work on CCOc1cccc(F)c1C#Cc1cn([C@@H]2O[C@H](CNS(N)(=O)=O)[C@@H](O)[C@H]2O)c2ncnc(N)c12 yielded an IC50 of 730 nM.
